Nrf2 block = inhibitors of Nrf2 signaling | A549 ARE-Fluc reporter, luciferase luminescence, 18-24 h | AID 504444 | actives 2.1% (n = 360,000) | Potency, µM (top dose mostly 46 µM), for inactives: at the highest dose activity change, negative = inhibition, usual class: inhibitors; further: potency means the concentration at half of the fitted maximal effect; on the % scale 0 is the no-effect control and ±100 the full control effect; nearly all actives have a fitted effect of over 60% in size
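Nrf2 activity is the BugLite luminescence, read 15 min after reagent at room temperature, following CellTiter-Fluor cytotoxicity readout (30 min, 37C). Compound titrations were applied for 18-24 h to 5000 A549 ARE_Fluc cells/well in 5% FBS OPTI-MEM.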
TCR activator = activates T cell receptor signaling. primary human leukocytes, anti-CD3, IL-2 HTRF, 48 h. Potency, µM (highest dose often 9.22 µM), without a hit: top-dose activation of IL-2 secretion, hits mostly activators. 330,000 tested, under 10 active. AID 504894; further: % of control where 0% means no effect
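Human primary leukocytes + a-CD3 beads + cpd, 48 hr; IL-2 in supernatant by HTRF (ex 320nm / em 665nm). No co-stimulatory signal supplied.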
Nrf2 ARE act = activates Nrf2 signaling; AREc32 ARE-luciferase reporter (MCF7-derived line), luminescence, 24 h; Potency, µM (top dose mostly 46.1 µM), for inactives: top-dose activation, hits mostly activators; actives 0.31% (n = 410,000); further: potency means the concentration at half of the fitted maximal effect; % of control where 0% means no effect; nearly all actives have a fitted effect of over 65% in size
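Luminescent ARE reporter assay in AREc32_Fluc cells: overnight plating at 37 deg C, 24 hr compound incubation, Steady-Glo added, 30 min RT before reading.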
A549 tox = counter-screen for Nrf2 inhibitors: cytotoxicity in A549 cells; actives 0.16% (n = 390,000); Potency, µM (top dose mostly 46 µM), for inactives: at the top dose activity change, negative = cytotoxicity, hits mostly inhibitors; A549 ARE-Fluc cells, CellTiter-Fluor viability, 18-24 h; AID 504648; further: potency means the concentration at half of the fitted maximal effect; on the % scale 0 is the no-effect control and ±100 the full control effect
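A549 ARE-Fluc cells in 5% FBS OPTI-MEM, 5000 cells/well, rested 2 h then exposed to compounds in concentration-response for 18-24 h at 37 °C. Viability by CellTiter-Fluor fluorescence (Ex 405/Em 525) after 30 min; luciferase luminescence (BugLite, 15 min, RT) read afterwards.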
ClpP mod = qHTS Assay for Activators of ClpP; AID 651965, 2013; actives 1.9% (n = 340,000); purified B. subtilis ClpP, FRET peptide cleavage, 20 min; Potency, µM (titrated, usually from 57.5 µM), for inactives: at the highest dose activity change, negative = active; active means well fitted falling curve with a large enough effect; inconclusive means small, poorly fitted or top-dose-only effect; inactive means no such curve, though single readings can be large or run the other way; further: potency means the concentration at half of the fitted maximal effect; the source files actives as falling curves though it sought activators and does not explain the sign; nearly all actives have a fitted effect of over 65% in size
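ClpP 10 microg/mL final, pH 8 Tris/KCl buffer with BSA, glycerol, Tween-20; compound pinned in; FRET-FV substrate; RT 20 min; Ex320/Em430; ΔFRET vs ADEP 5.8 microM, DMSO, no enzyme.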
miR-21 FLuc = miR-21 reporter, rising signal | HeLa miR-21 FLuc reporter, luciferase, 48 h | Potency, µM (highest dose often 38.3 µM), for inactives: at the top dose reporter change, positive = more light | 340,000 tested, under 10 active | AID 2288; active = well fitted rising curve with a large enough effect; inconclusive = small, poorly fitted or top-dose-only effect; inactive = no such curve, though single readings can be large or run the other way;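 further: % of control where 0% means no effect; miR-21 action dims this reporter so a rising signal means less miR-21 action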
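HeLa miR-21-FLuc reporter line, endogenous miR-21; 2000 cells/well in DMEM/10% FBS; compound titration up to ~40uM final, 48 h, 37 degree Celsius; luciferase detection reagent, 15 min lysis, CCD luminescence.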
Starred values were filed as active, the others as inactive; ? = inconclusive; · = no result given; [ ] = dose if it differs, or a comment. This is a sample that favours compounds with a hit; in the whole collection about 3.7% have one here. Unless noted, the call rests on the fitted dose curve; in most records, active means well fitted curve in the direction sought with a large enough effect; inconclusive means small, poorly fitted or top-dose-only effect, or another doubt; inactive means no such curve, though single readings can be large; an effect the other way counts as inactive or inconclusive.

SMILES,Nrf2 block,TCR activator,Nrf2 ARE act,A549 tox,ClpP mod,miR-21 FLuc
CCOC(=O)c1c(-c2ccc(C)o2)csc1NC(=O)CN1CCCCC1,-20%,-7%,6%,0%,·,-7%
CCOC(=O)c1c(-c2ccc(C)o2)csc1NC(=O)CSc1nncs1,21µM*,-6%,19%,2%,-1%,-11%
CCOC(=O)c1c(-c2ccc(C)o2)csc1NC(=O)CN(C)CC(=O)Nc1ccc(C)cc1,16µM*,3%,-1%,-27%,-6%,0%
COc1ccc2[nH]c(=O)c(CN(CCc3ccccc3)C(C)=O)cc2c1,-12%,3%,0%,-2%,28µM*,-2%
CN(C)CCN(Cc1cc2cc3c(cc2[nH]c1=O)OCO3)C(=S)NCC1CCCO1 (configuration not stated),8%,-4%,0%,2%,·,0%
Cc1ccc2[nH]c(=O)c(CN(CCO)C(=O)N(C)C)cc2c1,15%,2%,0%,-9%,28µM*,·
O=C(NCc1ccccc1)N(Cc1cc2cc3c(cc2[nH]c1=O)OCO3)CC1CCCO1 (configuration not stated),-6%,0%,-1%,-10%,28µM*,-3%
CC(=O)N(CCc1ccccc1)Cc1cc2cc(C)ccc2[nH]c1=O,5%,-2%,1%,0%,?,-3%
CCN(CC)CCCN(Cc1cc2cc(OC)ccc2[nH]c1=O)C(=O)Nc1ccc(F)cc1,8%,3%,2%,5%,28µM*,2%
CC1(C(=O)NS(=O)(=O)C2CC2)CCN(C(=O)CSc2ccccc2)C1 (configuration not stated),·,·,-1%,·,-1%,·
COc1ccccc1NC(=O)N(Cc1ccco1)Cc1cc2cc(C)cc(C)c2[nH]c1=O,23µM*,-3%,0%,?,-27%,5%
COc1ccc2[nH]c(=O)c(CN(CCO)S(=O)(=O)c3ccc(C)cc3)cc2c1,21%,2%,3%,2%,5%,-12%
CCc1ccc2[nH]c(=O)c(CN(CCN(CC)CC)C(=O)Nc3ccccc3OC)cc2c1,?,-7%,0%,-17%,-10%,1%
COc1ccc2[nH]c(=O)c(CN(CCO)C(=O)c3ccccc3F)cc2c1,0%,-1%,0%,1%,20µM*,-15%
Cc1ccc2[nH]c(=O)c(CN(CCO)C(=O)NCc3ccccc3)cc2c1,9%,-5%,0%,2%,-21%,2%
CCc1ccc2[nH]c(=O)c(CN(CCN(C)C)C(=O)Nc3ccccc3OC)cc2c1,-5%,-4%,0%,3%,28µM*,-8%
COc1ccc2[nH]c(=O)c(CN(CCN(C)C)C(=O)NCc3ccccc3)cc2c1,3%,-3%,2%,-3%,25µM*,-5%
COc1ccc(-c2nc3scc(CCNC(=O)c4cccc(Br)c4)n3n2)cc1,-12%,·,9%,-6%,2%,16%
CC(C(=O)Nc1ccccc1Br)N1c2cccc3cccc(c23)S1(=O)=O (configuration not stated),?,8%,3%,2%,?,-6%
O=C(Nc1cccc(C(=O)O)c1)/C(=C\c1ccccc1Cl)NC(=O)c1ccco1,19%,-4%,1%,2%,22%,-4%
CNC(=S)N(Cc1cccs1)Cc1cc2cc(OC)c(OC)cc2[nH]c1=O,3%,-8%[46.1 µM],4%,-1%,25µM*,-5%
COc1cc2cc(CN(Cc3cccnc3)C(=O)NCc3ccccc3)c(=O)[nH]c2cc1OC,9%,-2%,0%,-8%,25µM*,3%
COc1cc2cc(CN(Cc3cccs3)C(=S)Nc3ccc(C)cc3)c(=O)[nH]c2cc1OC,7%,-4%[46.1 µM],1%,-12%,?,11%
COc1ccc2cc(CN(CC3CCCO3)S(=O)(=O)c3ccc(C(C)=O)cc3)c(=O)[nH]c2c1 (configuration not stated),9%,·,0%,-2%,-14%,-28%
COC(=O)c1ccccc1S(=O)(=O)N(Cc1cc2ccc(OC)cc2[nH]c1=O)CC1CCCO1 (configuration not stated),1%,-2%,-1%,0%,28µM*,-2%

Full records, quoted from the list. Order of screens: Nrf2 block | TCR activator | Nrf2 ARE act | A549 tox | ClpP mod | miR-21 FLuc
Record of `COC(=O)c1ccccc1S(=O)(=O)N(Cc1cc2ccc(OC)cc2[nH]c1=O)CC1CCCO1` (configuration not stated) : 1% | -2% | -1% | 0% | 28µM* | -2%
Record of `CN(C)CCN(Cc1cc2cc3c(cc2[nH]c1=O)OCO3)C(=S)NCC1CCCO1` (configuration not stated) : 8% | -4% | 0% | 2% | · | 0%

Continuation:
SMILES,Nrf2 block,TCR activator,Nrf2 ARE act,A549 tox,ClpP mod,miR-21 FLuc
O=C(NC1CCCCC1)c1[nH]c(C(F)(F)F)nc1-c1ccccc1,·,·,0%,·,0%,·
CC(=O)Nc1c(C)nn(-c2ccccc2)c1N1CCC(C(=O)NCc2ccc(Cl)cc2)CC1,·,·,5%,15%,-2%,-5%
CCN1CCc2c(C#N)c(N3CCCCC3)nc(N3CCOCC3)c2C1,8%,-1%,0%,9%,8.9µM*,-12%
CC(C)c1nc(N2CCOCC2)c(C#N)c2c1CCCC2,-3%,5%,0%,-2%,32µM*,-1%
CCN1CCc2c(C#N)c(N3CCOCC3)nc(N3CCOCC3)c2C1,·,-4%,0%,0%,?,-5%
Cc1onc(-c2ccccc2)c1C(=O)OCC(=O)Nc1ccc(OC(F)(F)F)cc1,23µM*,-2%,1%,-8%,0%,·
Cc1onc(-c2ccccc2)c1C(=O)OCC(=O)Nc1ccc(Cl)cc1,23µM*,-5%,0%,?,-2%,·
CCOC(=O)c1c(C)nc2c(c1-c1cc(OC)ccc1OC)C(=O)c1ccccc1-2,1%,2%,2%,-6%,2%,-6%
CCOC(=O)c1ccccc1NC(=O)c1c(-c2ccccc2)noc1C,·,·,3%,3%,-17%,19%
CCOC(=O)c1c(NC(=O)c2c(-c3ccccc3)noc2C)sc(C)c1-c1ccccc1,·,0%,-1%,-1%,14µM*,?
CCOC(=O)c1c(C)nc2c(c1-c1ccccc1)C(=O)c1ccccc1-2,13µM*,-9%,-1%,-19%,-2%,-6%
COc1ccc(CNC(=O)C(CC(C)C)NS(=O)(=O)c2ccc3c(c2)CCN3C(C)=O)cc1 (configuration not stated),0%,·,0%,-1%,5%,-2%
CCOC(=O)c1c(C)oc2c(Cl)cc(NS(=O)(=O)c3ccc(Cl)c(C)c3)cc12,-10%,·,-1%,-1%,-1%,-10%
COc1ccc(OC)c(NC(=O)c2oc(=O)c3ccccc3c2-c2ccccc2)c1,·,·,1%,-3%,-1%,-7%
CN(C1CCCCC1)S(=O)(=O)c1ccc(NC(=O)C2CCCCC2C(=O)O)cc1 (configuration not stated),·,3%,-1%,-2%,32µM*,-3%

Structures from the list above containing two or more sulfur atoms:
SMILES,Nrf2 block,TCR activator,Nrf2 ARE act,A549 tox,ClpP mod,miR-21 FLuc
CCOC(=O)c1c(-c2ccc(C)o2)csc1NC(=O)CSc1nncs1,21µM*,-6%,19%,2%,-1%,-11%
CC1(C(=O)NS(=O)(=O)C2CC2)CCN(C(=O)CSc2ccccc2)C1 (configuration not stated),·,·,-1%,·,-1%,·
CNC(=S)N(Cc1cccs1)Cc1cc2cc(OC)c(OC)cc2[nH]c1=O,3%,-8%[46.1 µM],4%,-1%,25µM*,-5%
COc1cc2cc(CN(Cc3cccs3)C(=S)Nc3ccc(C)cc3)c(=O)[nH]c2cc1OC,7%,-4%[46.1 µM],1%,-12%,?,11%
